{"sequences": {"note": "The chains behind the UniProt entries cited, without tags or fusion partners.", "UniProt O95136, whole entry": "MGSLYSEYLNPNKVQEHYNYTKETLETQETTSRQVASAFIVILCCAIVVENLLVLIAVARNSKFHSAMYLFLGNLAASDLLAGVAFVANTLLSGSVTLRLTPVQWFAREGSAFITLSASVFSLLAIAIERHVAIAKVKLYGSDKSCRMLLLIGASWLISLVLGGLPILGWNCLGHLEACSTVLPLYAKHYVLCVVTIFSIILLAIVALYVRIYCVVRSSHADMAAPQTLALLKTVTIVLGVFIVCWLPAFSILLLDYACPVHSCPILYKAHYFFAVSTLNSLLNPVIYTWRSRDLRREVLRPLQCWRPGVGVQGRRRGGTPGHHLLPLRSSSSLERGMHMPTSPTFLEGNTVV"}, "source": "PubChem BioAssay AID736", "about": "(The Scripps Research Institute Molecular Screening Center, 2007)", "note": "The list shows a part of the results, in another mix than the full data. Active and inactive are the calls of the source. Cut-off read from the data, not from the text of the source: active = inhibition above about 45%; inactive = the rest."}
{"target": "Sphingosine 1-phosphate receptor 2 (Homo sapiens) (UniProt O95136)", "experiment": "blockers of S1P2 receptor signalling – cell-based, primary screen (AID 736);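 note: CRE beta-lactamase reporter cells expressing human S1P2 stimulated with S1P; 0% = agonist at EC80 alone and 100% = agonist plus reference antagonist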", "conditions": "cell-based S1P2 antagonist assay, at 5 µM, hits give high values"}
{"smiles": "CP(=O)(OC12CC3CC(CC(C3)C1)C2)OC12CC3CC(CC(C3)C1)C2", "inhibition": "inactive: -15.9%"}
{"smiles": "CCN(CC)CC(O)COC(=O)C(O)(c1ccccc1)C1CCCCC1", "note": "(stereo not given)", "inhibition": "inactive: 5.32%"}
{"smiles": "CP(=O)(Oc1ccccc1)N1CCOC1=O", "note": "(stereo not given)", "inhibition": "inactive: -11%"}
{"smiles": "COc1ccccc1OP(C)(=O)Nc1c(C)n(C)n(-c2ccccc2)c1=O", "note": "(stereo not given)", "inhibition": "inactive: 13.3%"}
{"smiles": "CP(=O)(Nc1ccc(Cl)cc1)Oc1ccc(F)cc1", "note": "(stereo not given)", "inhibition": "inactive: -6.55%"}
{"smiles": "CC(C)(C)c1ccc(OP(C)(=O)O)cc1", "inhibition": "inactive: 4.17%"}
{"smiles": "CN(C)CCOC(=O)C(O)(c1ccccc1)C1CCCC1", "note": "(stereo not given)", "inhibition": "inactive: -14.5%"}
{"smiles": "COc1ccc(OP(C)(=O)Nc2ccccn2)cc1", "note": "(stereo not given)", "inhibition": "inactive: -1.93%"}
{"smiles": "Cc1c(NP(C)(=O)Oc2ccc(C(C)C)cc2)c(=O)n(-c2ccccc2)n1C", "note": "(stereo not given)", "inhibition": "inactive: -3.13%"}
{"smiles": "CCc1ccc(OP(C)(=O)O)cc1", "inhibition": "inactive: -11.8%"}
{"smiles": "CP(=O)(Nc1ccccn1)Oc1ccccc1", "note": "(stereo not given)", "inhibition": "inactive: 3.69%"}
{"smiles": "COc1ccccc1OP(C)(=O)Nc1ccc(C)cc1C", "note": "(stereo not given)", "inhibition": "inactive: -2.26%"}
{"smiles": "COc1ccccc1OP(C)(=O)Nc1ccc(C)c(C)c1", "note": "(stereo not given)", "inhibition": "inactive: 6.71%"}
{"smiles": "Cc1nc2ccc3ccccc3c2o1.O=[N+]([O-])c1cc([N+](=O)[O-])c(O)c([N+](=O)[O-])c1", "inhibition": "inactive: -1.88%"}
{"smiles": "CCN(CC)CCCOC(=O)C(O)(c1ccccc1)C1CCCCC1", "note": "(stereo not given)", "inhibition": "inactive: -1.57%"}
{"smiles": "CP(=O)(Nc1ccccc1)Oc1ccc(F)cc1", "note": "(stereo not given)", "inhibition": "inactive: 7.17%"}
{"smiles": "CP(=O)(Nc1ccccc1F)Oc1ccccc1", "note": "(stereo not given)", "inhibition": "inactive: -8.71%"}
{"smiles": "CCOP(C)(=S)SCC(=O)NC(C)(CC)C(=O)O", "note": "(stereo not given)", "inhibition": "inactive: 0.5%"}
{"smiles": "CP(=O)(Nc1ccc2c(c1)OCCO2)Oc1ccccc1", "note": "(stereo not given)", "inhibition": "inactive: -12.7%"}
{"smiles": "COc1ccc(OP(C)(=O)Nc2cccc(Br)c2)cc1", "note": "(stereo not given)", "inhibition": "inactive: 1.37%"}
{"smiles": "CN(C)CCOC(=O)C(O)(c1ccccc1)C1CCCCC1", "note": "(stereo not given)", "inhibition": "inactive: 7.79%"}
{"smiles": "COc1ccccc1OP(C)(=O)Nc1c(C)cccc1C", "note": "(stereo not given)", "inhibition": "inactive: -16.9%"}
{"smiles": "Cc1nc2ccc3ccccc3c2s1.O=[N+]([O-])c1cc([N+](=O)[O-])c(O)c([N+](=O)[O-])c1", "inhibition": "inactive: 3.51%"}
{"smiles": "Cc1cc(C)cc(OP(C)(=O)Nc2ccc(C)cc2C)c1", "note": "(stereo not given)", "inhibition": "inactive: 21.3%"}
{"smiles": "Cc1cc(C)cc(OP(C)(=O)Nc2ccccn2)c1", "note": "(stereo not given)", "inhibition": "inactive: 5.57%"}
{"smiles": "Cc1ccc(C)c(NP(C)(=O)Oc2ccccc2)c1", "note": "(stereo not given)", "inhibition": "inactive: 18.2%"}
{"smiles": "COc1ccc(OP(C)(=O)Nc2cccc(F)c2)cc1", "note": "(stereo not given)", "inhibition": "inactive: -12.6%"}
{"smiles": "CP(=O)(NC(=O)Nc1ccccc1)Oc1ccccc1", "note": "(stereo not given)", "inhibition": "inactive: -11.2%"}
{"smiles": "CP(=O)(Nc1ccccn1)Oc1ccc(Cl)cc1", "note": "(stereo not given)", "inhibition": "inactive: -11.1%"}
{"smiles": "CP(=S)(Nn1cnnc1)Oc1ccccc1", "note": "(stereo not given)", "inhibition": "inactive: -4.18%"}
